# pEC50: −log10 of the molar value.
# Legend:
# [1] = molecular target: T1, glucose-dependent insulinotropic polypeptide receptor (GIPR) (Homo sapiens, UniProt P48546); assay: GeneBLAzer GIPR-CRE-bla HEK293T cell-based reporter assay; settings: read-out: EC50 of activation of GIPR; 460/530 ratio; 5 hours incubation; purified proteins
# T1 construct: host or cells: HEK293T (GeneBLAzer GIPR-CRE-bla)
# T1 sequence (P48546 22-466): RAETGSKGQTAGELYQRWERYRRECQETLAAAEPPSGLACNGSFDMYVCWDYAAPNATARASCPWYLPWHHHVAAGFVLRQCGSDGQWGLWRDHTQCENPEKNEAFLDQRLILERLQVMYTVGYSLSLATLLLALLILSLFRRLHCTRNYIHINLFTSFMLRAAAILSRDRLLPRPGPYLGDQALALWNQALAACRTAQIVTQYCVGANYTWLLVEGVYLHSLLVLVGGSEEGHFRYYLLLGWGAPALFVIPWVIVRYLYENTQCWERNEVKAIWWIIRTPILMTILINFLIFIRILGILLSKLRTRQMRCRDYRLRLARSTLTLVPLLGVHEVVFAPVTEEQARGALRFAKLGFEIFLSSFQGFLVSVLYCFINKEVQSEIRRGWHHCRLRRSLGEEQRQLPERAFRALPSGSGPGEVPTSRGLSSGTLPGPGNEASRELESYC
# Protocol: This assay is diagrammatically represented in FIG. 3A.
# Briefly, GeneBLAzer® GIPR-CRE-bla HEK293T cells were added to wells of black-wall assay plates. […] To each well, LiverBLAzer-FRET B/G substrate mixture was added. The plate was covered with plate sealer and incubated at room temperature for 2 hours in the dark. Fluorescence emission was measured on SpectraMax plate reader at 460 nm and 530 nm with excitation set to 409 nm. After subtraction of background, average value at 460 nm (blue color) was divided by average value at 530 nm (green color) to obtain the 460/530 ratio.
# [2] = test system: HFD-fed mice; assay: longer-term obesity model in HFD-fed mice; settings: repeated tail vein dosing
# Protocol: Mice (Male C57BL/6) were of approximately 13 weeks of age were housed 4 mice per cage. Following 2 weeks of acclimation, mice were introduced to 60% kcal HFD (Research Diets D12492). Cages were changed once, then changed once a week. Weekly body weights and non-fasted blood glucose were collected.
# Mice were injected by tail vein with vehicle or the drugs on Day 0, Day 4, Day 7, Day 10, Day 14, and Day 18. Body weights were measured every 2 days. Change in body weight was calculated and plotted.
# Cumulative food intake was measured between day 0 and 3, between day 4 and 7, between day 7 and day 11, and between day 11 and day 14, and represented as average daily food intake. For food consumption, remaining food was weighed on days 3, 8, and 15, and subtracted from the starting weight. This value was then normalized to the number of mice in the cage, and the number of days the mice had access to the food prior to weighing.
# Blood glucose levels were measured on Days 0, 1, 10 and 15 and plotted.
# On day 19 during terminal necropsy, liver and subcutaneous white adipose tissue were recovered weighed from treated animals.
# To further analyze the changes in liver, histopathological analysis was conducted. Briefly, the liver tissue was stained with hematoxylin and eosin (H&E) and evaluated using standard techniques.
substance,measurement,setting,value
tirzepatide [reference compound],pEC50,[1],11.29
same,tolerability / clinical observations,[2],"moribund, lethargic, scruffy, and consumed significantly less food and water immediately post dose"
